Test results taken from article PMC4523496 (Molecular psychiatry, 2015).

Test system: IL-1β mRNA in VTA, NAc, vmPFC
Assay: IL-1β mRNA in brain micro-punches after systemic drug
Format: in vivo, rat

For `COC(=O)[C@H]1[C@@H](OC(=O)c2ccccc2)C[C@@H]2CC[C@H]1N2C` [Cocaine], the “IL-1β mRNA levels in vmPFC and NAc” value (30 min and 2 h after cocaine 10 mg/kg) was “unaltered at both time points” and the “IL-1β mRNA in the VTA” value (2 hr after cocaine 10 mg/kg) was “reliably increased”.
